target: opioid δ receptor (Rattus norvegicus, UniProt P33533); assay: Binding affinity for opioid δ receptor ([3H]-Naltrindole displacement, rat forebrain membrane fraction); conditions: read-out: Binding affinity Ki, [3H]-Naltrindole 1 nM, 25° C., 90 minutes, Ki calculated from IC50 by the Cheng-Prusoff equation

| Compound | Ki [nM] |
| --- | --- |
| CCN(CC)C(=O)c1ccc(C(CCN2CCC3(CC2)C(=O)NCN3c2ccccc2)c2cccc(O)c2)cc1 (centres unmarked) | 171 |
| CCN(CC)C(=O)c1ccc(C(CCN2CCC(n3c(=O)[nH]c4ccccc43)CC2)c2cccc(F)c2)cc1 (centres unmarked) | 821 |
| CCN(CC)C(=O)c1ccc(C(CCN2CCC(n3c(=O)[nH]c4ccccc43)CC2)c2ccc3c(c2)OCO3)cc1 (centres unmarked) | 1540 |
| COc1cccc(C(CCN2CCC(n3c(=O)[nH]c4ccccc43)CC2)c2ccc(C(=O)N3CCCCC3)cc2)c1 (centres unmarked) | 2760 |
| CCN(CC)C(=O)c1ccc(C(CCN2CCC(n3c(CO)nc4ccccc43)CC2)c2cccc(OC)c2)cc1 (centres unmarked) | 345 |

Reference: patent publication US6790854B2, “Diphenylalkylamine derivatives useful as opioid receptor agonists” (Meiji Seika Kaisha, Ltd., priority 2000, dated 2004)
